Laboratory results published in patent US10758545B2, “Methods to treat neurological diseases” (UNIVERSITY OF SOUTHERN CALIFORNIA, priority 2015, dated 2020).
“Also recorded” adds a separate entry of the source.

Test system: C9ORF72 patient iMNs
Assay: induced motor neuron (iMN) survival assay, glutamate treatment
Format: cell-based, human
Conditions: excess glutamate (10 μM, 12 hrs); longitudinal tracking, log-rank
Experimental: For the glutamate treatment conditions, 10 μM glutamate was added to the culture medium on day 17 and removed after 12 hrs. Cells were then maintained in N3 medium with neurotrophic factors without RepSox. For the glutamate treatment conditions with glutamate receptor antagonists, cultures were co-treated with 10 μM MK801 and CNQX, and 2 μM Nimodipine during the 12 hr glutamate treatment. The antagonists were maintained for the remainder of the experiment. For the neurotrophic factor withdrawal condition, BDNF, GDNF, and CNTF were removed from the culture medium starting at day 17. Longitudinal tracking was performed by imaging neuronal cultures in a Nikon Biostation CT or Molecular Devices ImageExpress once every 24 hrs starting at day 17. Tracking of neuronal survival was performed using SVcell 2.0 (DRVision Technologies).

6-Amino-N-(3-(4-(4-morpholinyl)pyrido[3′2′:4,5]furo[3,2-d]pyrimidin-2-yl)phenyl)-3-pyridinecarboxamide [YM201636]
survival of C9ORF72 patient iMNs: significantly increased the survival; also recorded: rescued patient iMN survival
